Patent US6911542B2, “Pyrazino[1′,2′:1,6]pyrido[3,4b]indole derivatives” (Lilly Icos LLC., priority 2000, dated 2005)
pIC50: −log10 of the molar value.

What follows are compounds tested against human recombinant PDE5 (Homo sapiens, UniProt O76074) (assay: cGMP-PDE one-step inhibition assay, human recombinant PDE5). Conditions: read-out: PDE5 IC50, 0.15 μM 8-[H3]-cGMP, 30 min incubation.
Type: biochemical

Row | SMILES | pIC50
1 | O=C1[C@H]2Cc3c([nH]c4ccccc34)[C@@H](c3ccc4c(c3)OCO4)N2C(=O)CN1Cc1nc2ccccc2[nH]1 [61] | 8.00
2 | CC(C)N(CCN1CC(=O)N2[C@H](c3ccc4c(c3)OCO4)c3[nH]c4ccccc4c3C[C@@H]2C1=O)C(C)C (relative stereo) | 6.33
3 | O=C1[C@H]2Cc3c([nH]c4ccccc34)[C@@H](c3ccc4c(c3)OCO4)N2C(=O)CN1CC1CCCO1 (stereo partly drawn) | 7.52
4 | Nc1cccc(CN2CC(=O)N3[C@H](c4ccc5c(c4)OCO5)c4[nH]c5ccccc5c4C[C@@H]3C2=O)c1 | 8.06
5 | Nc1ccc(CN2CC(=O)N3[C@H](c4ccc5c(c4)OCO5)c4[nH]c5ccccc5c4C[C@@H]3C2=O)cc1 | 8.38
6 | O=C1[C@H]2Cc3c([nH]c4ccccc34)[C@@H](c3ccc4c(c3)OCO4)N2C(=O)CN1Cc1cccc([N+](=O)[O-])c1 | 7.30
7 | COc1ccc([C@@H]2c3[nH]c4ccccc4c3C[C@@H]3C(=O)N(CCN4C[C@@H](C)O[C@@H](C)C4)CC(=O)N23)cc1 | 8.00
8 | Cc1cc(C)n(CCCN2CC(=O)N3[C@H](c4ccc5c(c4)OCO5)c4[nH]c5ccccc5c4C[C@@H]3C2=O)n1 | 8.08
9 | O=C1[C@H]2Cc3c([nH]c4ccccc34)[C@@H](c3ccc4c(c3)OCO4)N2C(=O)CN1c1ccccc1 | 8.21
10 | O=C1[C@H]2Cc3c([nH]c4ccccc34)[C@@H](c3ccc4c(c3)OCO4)N2C(=O)CN1Cc1ccc(OCc2ccccc2)cc1 | 7.15
11 | CC1C(=O)N2[C@H](c3ccc4c(c3)OCO4)c3[nH]c4ccccc4c3C[C@@H]2C(=O)N1Cc1ccc(N(C)C)cc1 (stereo partly drawn) | 7.15
12 | CN1CCCC1CCN1CC(=O)N2[C@H](c3ccc4c(c3)OCO4)c3[nH]c4ccccc4c3C[C@@H]2C1=O (stereo partly drawn) | 6.89
13 | CN(C)c1ccc(CN2CC(=O)N3[C@H](c4ccc5c(c4)OCO5)c4[nH]c5ccccc5c4C[C@@H]3C2=O)cc1 | 7.70
14 | CN(C)Cc1ccc(CN2CC(=O)N3[C@H](c4ccc5c(c4)OCO5)c4[nH]c5ccccc5c4C[C@@H]3C2=O)cc1 [65] | 6.20
15 | O=C1[C@H]2Cc3c([nH]c4ccccc34)[C@@H](c3ccc4c(c3)OCO4)N2C(=O)CN1Cc1nc2ccccc2[nH]1 [45] | 7.10
16 | O=C1[C@H]2Cc3c([nH]c4ccccc34)[C@@H](c3ccc4c(c3)OCO4)N2C(=O)CN1CCN1CCOCC1 | 8.00
17 | O=C1[C@H]2Cc3c([nH]c4ccccc34)[C@@H](c3ccc4c(c3)OCO4)N2C(=O)CN1CCN1CC2CCC(CC2)C1 | 6.40
18 | COc1ccc(C2c3[nH]c4ccccc4c3CC3C(=O)N(CCN4CCOCC4)CC(=O)N32)cc1 (stereo not drawn) | 8.00
19 | O=C1[C@H]2Cc3c([nH]c4ccccc34)[C@@H](c3ccc4c(c3)OCO4)N2C(=O)CN1CCn1ccnc1 [55] | 7.30
20 | O=C1[C@H]2Cc3c([nH]c4ccccc34)[C@@H](c3ccc4c(c3)OCO4)N2C(=O)CN1CCn1ccnc1 [53] | 6.26

Each compound was assayed against PDE5 obtained from bovine aorta (Bos taurus, UniProt Q28156) (assay: cGMP-PDE inhibition assay using PDE5 obtained from bovine aorta). Conditions: read-out: PDE5 IC50 (Bov. aorta).

Row | SMILES | pIC50
21 | CC(C)N(CCN1CC(=O)N2[C@H](c3ccc4c(c3)OCO4)c3[nH]c4ccccc4c3C[C@@H]2C1=O)C(C)C (relative stereo) | 5.79
22 | CCN(CC)CCN1CC(=O)N2[C@H](c3ccc4c(c3)OCO4)c3[nH]c4ccccc4c3C[C@@H]2C1=O (relative stereo) | 7.10
23 | O=C1[C@H]2Cc3c([nH]c4ccccc34)[C@@H](c3ccc4c(c3)OCO4)N2C(=O)CN1CCN1CCOCC1 (relative stereo) | 7.22
24 | O=C1[C@H]2Cc3c([nH]c4ccccc34)[C@@H](c3ccc4c(c3)OCO4)N2C(=O)CN1CCN1CCCCC1 (relative stereo) | 6.60
